Patent US4399067A

Settings: water

C[C@H](CC(=O)O)[C@@H]1NC(=O)[C@@H](CO)NC(=O)CNC(=O)[C@H](CC(=O)O)NC(=O)[C@@H](C)NC(=O)[C@H](CC(=O)O)NC(=O)[C@H](CCCNC(=O)OC(C)(C)C)NC(=O)CNC(=O)[C@@H](NC(=O)[C@H](CC(=O)O)NC(=O)[C@H](CC(N)=O)NC(=O)[C@@H](N)Cc2c[nH]c3ccccc23)[C@@H](C)OC(=O)[C@H](CC(=O)c2ccccc2N)NC1=O
Solubility: soluble in water
